From PubChem
ASAP1 inh: ASAP1 ArfGAP inhibition. Q9ULH1. ASAP1-stimulated ARF1 GTP hydrolysis, GDP FP detection. inhibition, % at 16.5 µM. 360,000 tested, 0.19% active. AID 624377; in the data active = inhibition above about 25%;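 also: 0% = vehicle with enzyme and substrate and 100% = no enzyme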
Yeast UUG start: modulators of yeast start codon fidelity, primary screen, whole organism, S. cerevisiae, single point, plate reader; S. cerevisiae UUG-firefly luciferase reporter, luminescence/redox ratio; activity score, % at 18.7 µM; actives 0.13% (n = 350,000);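 active means replicate mean at a twofold rise or more, about +100% in these data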;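 further: firefly luciferase made from a UUG start codon reports start codon fidelity; reporter light over untreated wells divided by growth signal over untreated wells; some hits fall short of that in this replicate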
MC4R antagonist: blocks human MC4R cAMP signaling; AID 540295; P32245; MC4R-expressing cells, MTII-stimulated cAMP, LANCE TR-FRET; 360,000 tested, 0.48% active; inhibition, % at 6.5 µM;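 active = inhibition above its plate's cutoff, the mean of tested wells on that plate plus 3 SD, cut at about 29% in these data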;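 also: 0% = Melanotan II alone and 100% = Melanotan II plus saturating MCL0020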
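Material: human MC4R-expressing U2OS cells. Probe or stimulus: Melanotan II challenge. Dosing: 6.5 µM single dose. Times: 30-min compound, 1-h challenge, 1-h detection, room temperature. Technique: TR-FRET with Eu-cAMP and labeled anti-cAMP, 671 nm. Replication: singlicate.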
MC4R ag barr: activates human MC4R beta-arrestin recruitment. U2OS MC4R beta-arrestin complementation, luminescence; percent of melanotan II response, DMSO zero. 360,000 tested, 0.98% active. P32245. activation, % at 8.9 µM;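 active = activation above a per-plate cutoff, the mean activation of sample wells on that plate plus 3 SD, cut at about 8% in these data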
CendR NRP1 mod: alters CendR peptide binding to human NRP-1 | O14786 | FAM-RPARPAR peptide binding to NRP-1, fluorescence polarization | inhibition, % at 25 µM | 360,000 tested, 0.85% active | AID 602438;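 active = inhibition or corrected inhibition above about 18%, plus a signal ratio from 0.5 to 1.5, limit read from the data, passing the limit was not always enough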
ARFGAP1 inh: rat ARFGAP1 inhibition. inhibition, % at 16.5 µM. AID 651572. Q62848. Arfgap1-stimulated ARF1 GTP hydrolysis, GDP FP detection. 360,000 tested, 0.26% active;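 active = inhibition above a per-plate limit, mean inhibition of low control wells plus 3 SD, cut at about 25% in these data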;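 also: 0% = DMSO wells with enzyme and 100% = wells lacking Arfgap1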
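Material: rat Arfgap1 GAP domain (His6, aa 1-136), purified enzyme. Also added: human ARF1(Δ1-17)-GTP substrate. Compound dosing: 16.5 µM single point, 1.26% DMSO. Timing: enzyme reaction 120 min at 25 °C after 20 min preincubation. Signal: GDP detection by fluorescence polarization. Read-out basis: percent inhibition of GAP-stimulated GDP formation, scaled between DMSO and no-Arfgap1 medians.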
An asterisk follows results filed as active; nt = no result. Only some compounds are listed: those with a hit (about 2.3% of all), similar ones and a draw of the others.

molecule,ASAP1 inh,Yeast UUG start,MC4R antagonist,MC4R ag barr,CendR NRP1 mod,ARFGAP1 inh
Cc1ccc(F)c(S(=O)(=O)NC(=O)C2(C)CCN2C(=O)c2ccc(C3CCCCC3)cc2)c1 (centres undefined),-8,nt,15,-1,26*,4
COc1cccc(S(=O)(=O)N[C@H]2CC[C@H](CCn3cc(-c4ccccn4)nn3)O[C@@H]2CO)c1,nt,-30,nt,nt,nt,nt
CC1(Cc2ccc(F)c(Cl)c2)C(=O)Nc2c(Cl)cccc21 (centres undefined),7,-15,4,8,25*,2
CC1(Cc2cc(Cl)ccc2C(F)(F)F)C(=O)Nc2c(Cl)cccc21 (centres undefined),1,-13,14,5,9,-1
O=S(=O)(NC(=NC1CCCCC1)c1ccccc1)c1ccccc1,14,-12,5,-2,-3,-14
Cc1ccc(S(=O)(=O)NC(=NC2CCCCC2)c2ccc(Cl)cc2)cc1,nt,-11,8,-3,21*,nt
Cc1c(C(=O)Nc2ccc(Oc3ccccc3)cc2)sc2nc3n(c(=O)c12)CCC3,2,nt,8,0,7,5
Cc1c(C(=O)Nc2ccc(OC(F)(F)F)cc2)sc2nc3n(c(=O)c12)CCC3,-15,3,13,-1,44*,7
O=C(CCc1ccc(Oc2cc([N+](=O)[O-])cc([N+](=O)[O-])c2)cc1)N1CCCCCC1,-11,-12,7,1,26*,18
CCC(=O)N(C)C[C@H]1Oc2cc(C3=CCCC3)ccc2S(=O)(=O)N([C@H](C)CO)C[C@@H]1C,nt,4,nt,nt,nt,nt
O=C(CN(c1ccc(Cl)cc1)S(=O)(=O)c1ccccc1)N1CCN(c2ccccc2)CC1,13,-3,12,9.1*,10,13
C[C@@H]1CN([C@@H](C)CO)C(=O)c2cc(C#Cc3ccncc3)cnc2O[C@H]1CN(C)CC1CCOCC1,nt,-9,nt,nt,nt,nt
COc1ccc(Br)cc1CNC(=O)CCc1nc(-c2ccc(C)cc2)no1,13,1,9,1,23*,-4
CCOC(=O)c1ccc(NC(=O)CCc2nc(-c3ccc(Cl)cc3)no2)cc1,0,0,5,2,2,0
CCOC(=O)c1ccc(NC(=O)CCc2nc(-c3ccc(C)cc3)no2)cc1,9,-16,14,9.7*,5,3
COc1ccc(-c2noc(CCC(=O)NCc3cc(Br)ccc3OC)n2)cc1,3,-2,7,3,-9,5
Cc1ccc(S(=O)(=O)N(C)C)cc1NC(=O)COC(=O)c1ccc2c(c1)OCCO2,-5,2,19,-1,1,-2
Cc1ccc(S(=O)(=O)N(C)C)cc1NC(=O)COC(=O)c1ccc2c(c1)OCO2,-4,nt,-2,2,37*,14
C[C@H](CO)N1C[C@H](C)[C@H](CN(C)C(=O)c2ccccc2)OCCCC[C@H](C)Oc2ccc(NS(=O)(=O)c3ccccc3)cc2C1=O,nt,6,nt,nt,nt,nt
Cc1ccc(C)c(-n2c(SCC(=O)NC(C(=O)O)C(C)C)nnc2-c2cccc(Cl)c2)c1 (centres undefined),4,nt,12,-2,26*,-2

(next part)
molecule,ASAP1 inh,Yeast UUG start,MC4R antagonist,MC4R ag barr,CendR NRP1 mod,ARFGAP1 inh
CNC(=O)CSc1nnc(-c2ccco2)n1-c1cc(C)ccc1C,12,5,-5,-1,9,-7
CCC(=O)Nc1ccc2c(c1)C(=O)N(C)C[C@H](OC)[C@@H](C)CN(C(=O)COC)[C@H](C)CO2,nt,0,nt,nt,nt,nt
Cn1c(N)c(C(=O)COC(=O)C2(c3ccccc3F)CCCC2)c(=O)n(C)c1=O,2,10,1,-2,32*,-1
Cn1c(N)c(C(=O)COC(=O)C2(c3ccc(F)cc3)CCCC2)c(=O)n(C)c1=O,1,-9,3,1,5,6
CC(=O)Nc1ccc(SC[C@H](Cc2ccccc2)N2CC[C@@H](O)CCC2=O)cc1,0,-11,1,-3,22,4
CC(=O)Nc1ccc(SC[C@H](Cc2ccccc2)N2CCN(CCc3ccccc3)CCC2=O)cc1,11,3,14,1,25*,-3
CC(=O)Nc1ccc(SC[C@H](Cc2ccccc2)N2CC[C@@H](C(C)(C)C)CCC2=O)cc1,13,-15,3,1,28*,-11
O=C(NCC[C@@H]1CC[C@@H](NC(=O)c2ccccc2F)[C@@H](CO)O1)c1cnccn1,nt,-4,nt,nt,nt,nt
O=C(N/N=C/c1ccccn1)c1cc(C2CC2)[nH]n1,6,-6,1,-4,-9,-5
O=C(N/N=C/c1cccc2ccccc12)c1cc(C2CC2)[nH]n1,10,5,-3,-2,22*,6
COc1cccc(CNC(=O)C[C@H]2CC[C@@H]3[C@@H](COc4ccc(NC(C)=O)cc4C(=O)N3C)O2)c1,nt,-3,nt,nt,nt,nt
COc1ccc(C(=O)N2CCC(C)(C(=O)NS(=O)(=O)C3CC3)C2)c(OC)c1 (centres undefined),-5,3,3,-2,-113,-9
COc1ccc(C(=O)N2CCC(C)(C(=O)NS(=O)(=O)C3CC3)C2)cc1F (centres undefined),0,-19,0,0,22*,1
Cc1noc(C)c1S(=O)(=O)N(C)C[C@H]1Oc2ccc(NC(=O)NC3CCCCC3)cc2CC(=O)N([C@H](C)CO)C[C@H]1C,nt,16,nt,nt,nt,nt
CCOc1ccc(N(CC(=O)N2CCC(Cc3ccccc3)CC2)S(C)(=O)=O)cc1,0,8,-5,2,29*,12
FCCCOc1ccc(-c2nccc(-c3ccccn3)n2)cc1,0,-16,0,1,21*,17
O=C(O)COc1ccc(-c2nccc(-c3ccccn3)n2)cc1,20,nt,8,-3,2,0
Cc1c(C(=O)OCC(=O)NCCc2ccc(S(N)(=O)=O)cc2)oc2ccccc12,-1,-11,0,-2,6,-5
COCc1c(C(=O)OCC(=O)NCCc2ccc(S(N)(=O)=O)cc2)oc2ccccc12,-7,-30,5,-2,21*,4
O=C(Nc1ccc(F)cc1)N[C@H]1CC[C@@H](CCn2cc(C3(O)CCCC3)nn2)O[C@@H]1CO,nt,-5,nt,nt,nt,nt

Full records, looked up by structure. Screens in order: ASAP1 inh, Yeast UUG start, MC4R antagonist, MC4R ag barr, CendR NRP1 mod, ARFGAP1 inh
`CCOC(=O)c1ccc(NC(=O)CCc2nc(-c3ccc(C)cc3)no2)cc1` in the list: 9, -16, 14, 9.7*, 5, 3
`Cn1c(N)c(C(=O)COC(=O)C2(c3ccccc3F)CCCC2)c(=O)n(C)c1=O` in the list: 2, 10, 1, -2, 32*, -1
`CC(=O)Nc1ccc(SC[C@H](Cc2ccccc2)N2CC[C@@H](O)CCC2=O)cc1` in the list: 0, -11, 1, -3, 22, 4
`Cc1c(C(=O)Nc2ccc(OC(F)(F)F)cc2)sc2nc3n(c(=O)c12)CCC3` in the list: -15, 3, 13, -1, 44*, 7
`Cc1ccc(S(=O)(=O)NC(=NC2CCCCC2)c2ccc(Cl)cc2)cc1` in the list: nt, -11, 8, -3, 21*, nt

Following part:
molecule,ASAP1 inh,Yeast UUG start,MC4R antagonist,MC4R ag barr,CendR NRP1 mod,ARFGAP1 inh
COC(=O)C1CCC(=S)N1C(=O)c1ccccc1 (centres undefined),0,-18,3,0,-6,0
COC(=O)[C@H]1CN(C(=O)c2ccccc2)C(=O)N1,-4,-14,-2,0,25*,2
O=C(NCCOC(=O)c1ccccc1)c1ccccc1,7,-11,2,0,22*,-4
O=C(NCCOC(=O)c1ccc(C(=O)OCCNC(=O)c2ccccc2)o1)c1ccccc1,6,-10,5,-1,-5,2
